We go through one substance from patent publication US5698222A, “Calcium supplement” (Abbott Laboratories, priority 1995, dated 1997).

The conditions of series [1]: rat, in vivo, 30240 min; cited from earlier work.

Where two headings read alike, the source gives them in different places.

As to calcium glycerophosphate [CaGP], the “solubility at time of manufacture” value runs as follows: (pH 3.5) “soluble”; (pH 5) “soluble”. In addition, the “solubility at 1 month” value (pH 5) is “insoluble”. In series [1], the relative calcium bioavailability is recorded as 106%.
